Experimental data published in ChEMBL document CHEMBL3585322, “Synthesis, enantiomeric separation and docking studies of spiropiperidine analogues as ligands of the nociceptin/orphanin FQ receptor” (2014).
The source made the active and inactive calls. The calls are words filed in the database; no cut-off is given here.

The chains behind the UniProt entries cited, without tags or fusion partners. Where a name states a change or a piece, a line headed by the entry shows the natural chain unless it says otherwise.
UniProt P41146: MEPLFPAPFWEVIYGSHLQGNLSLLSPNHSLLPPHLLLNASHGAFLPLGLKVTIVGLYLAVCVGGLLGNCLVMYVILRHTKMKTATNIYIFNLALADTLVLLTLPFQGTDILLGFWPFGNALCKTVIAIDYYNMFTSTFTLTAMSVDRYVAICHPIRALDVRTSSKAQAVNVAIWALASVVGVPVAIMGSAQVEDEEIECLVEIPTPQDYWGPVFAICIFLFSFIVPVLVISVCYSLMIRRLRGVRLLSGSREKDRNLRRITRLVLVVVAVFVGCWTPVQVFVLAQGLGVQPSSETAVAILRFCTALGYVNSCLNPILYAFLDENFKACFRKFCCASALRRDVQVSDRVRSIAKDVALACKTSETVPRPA

What was measured:
[1] = molecular target: Nociceptin receptor (Homo sapiens) (UniProt P41146); test: Agonist activity at human recombinant NOP receptor expressed in CHO cells co-expressing C-terminally modifed Gaqi5 protein by Fluo-4AM dye based calcium mobilization assay
[2] = molecular target: Nociceptin receptor (Homo sapiens) (UniProt P41146); test: Intrinsic activity at human recombinant NOP receptor expressed in CHO cells co-expressing C-terminally modifed Gaqi5 protein by Fluo-4AM dye based calcium mobilization assay
[3] = molecular target: Nociceptin receptor (Homo sapiens) (UniProt P41146); test: Antagonist activity at human recombinant NOP receptor expressed in CHO cells co-expressing C-terminally modifed Gaqi5 protein assessed as inhibition of agonist response up to 10 uM by Fluo-4AM dye based calcium mobilization assay
[4] = molecular target: Nociceptin receptor (Homo sapiens) (UniProt P41146); test: Agonist activity at human recombinant NOP receptor expressed in CHO cells co-expressing C-terminally modifed Gaqi5 protein up to 10 uM by Fluo-4AM dye based calcium mobilization assay
[5] = molecular target: Nociceptin receptor (Homo sapiens) (UniProt P41146); test: Antagonist activity at human recombinant NOP receptor expressed in CHO cells co-expressing C-terminally modifed Gaqi5 protein assessed as inhibition of agonist response by Fluo-4AM dye based calcium mobilization assay
[6] = molecular target: Nociceptin receptor (Homo sapiens) (UniProt P41146); test: Agonist activity at human recombinant NOP receptor expressed in CHO cells co-expressing C-terminally modifed Gaqi5 protein at EC80 level in presence of SB-612111 by Fluo-4AM dye based calcium mobilization assay

Structure (SMILES): O=C1NCN(c2ccccc2)C12CCN([C@H]1C[C@@H](c3ccccc3)Oc3ccccc31)CC2
- pEC50 [1]: inactive

Structure (SMILES): O=C1NCN(c2ccccc2)C12CCN(C1CC3(CCSCC3)Oc3ccccc31)CC2 (stereo not given)
- pEC50 [1]: inactive

Structure (SMILES): O=C1NCN(c2ccccc2)C12CCN(C1CCOc3cccc(F)c31)CC2 (stereo not given)
- Intrinsic activity [2]: 1

Structure (SMILES): CC1(C)COc2ccccc2C1N1CCC2(CC1)C(=O)NCN2c1ccccc1 (stereo not given)
- pEC50 [1]: inactive

Structure (SMILES): O=C1NCN(c2ccccc2)C12CCN(C1CC3(CCCC3)Oc3ccccc31)CC2 (stereo not given)
- pEC50 [1]: inactive

Structure (SMILES): CC(=O)N1CCC2(CC1)CC(N1CCC3(CC1)C(=O)NCN3c1ccccc1)c1ccccc1O2 (stereo not given)
- pEC50 [1]: inactive

Structure (SMILES): O=C1NCN(c2ccccc2)C12CCN(CC1COc3ccccc3O1)CC2 (stereo not given)
- Intrinsic activity [2]: 0.81

Structure (SMILES): O=C1NCN(c2ccccc2)C12CCN(C1CCOc3ccccc31)CC2 (stereo not given)
- Intrinsic activity [2]: 1.02

Structure (SMILES): CCN1CCC2(CC1)CC(N1CCC3(CC1)C(=O)NCN3c1ccccc1)c1ccccc1O2 (stereo not given)
- inhibition [3]: inactive
- Activity [4]: inactive

Structure (SMILES): CC1(C)CC(N2CCC3(CC2)C(=O)NCN3c2ccccc2)c2ccccc2O1 (stereo not given)
- pEC50 [1]: inactive

Structure (SMILES): CN1CCC2(CC1)CC(N1CCC3(CC1)C(=O)NCN3c1ccccc1)c1ccccc1O2 (stereo not given)
- inhibition [3]: inactive
- Activity [4]: inactive

Structure (SMILES): O=C1NCN(c2ccccc2)C12CCN(C1CC3(CCOCC3)Oc3ccccc31)CC2 (stereo not given)
- pEC50 [1]: inactive

Structure (SMILES): CS(=O)(=O)N1CCC2(CC1)CC(N1CCC3(CC1)C(=O)NCN3c1ccccc1)c1ccccc1O2 (stereo not given)
- pKb [5]: < 6
- pEC50 [1]: inactive

Structure (SMILES): O=C1NCN(c2ccccc2)C12CCN([C@H]1CCOc3ccccc31)CC2
- Intrinsic activity [2]: 0.95
- Activity [6]: inactive

Structure (SMILES): O=C1NCN(c2ccccc2)C12CCN([C@H]1CC3(CCNCC3)Oc3ccccc31)CC2
- inhibition [3]: inactive
- Activity [4]: inactive

Structure (SMILES): O=C1NCN(c2ccccc2)C12CCN([C@@H]1CCOc3ccccc31)CC2
- Intrinsic activity [2]: 0.98
- Activity [6]: inactive

Structure (SMILES): O=C1NCN(c2ccccc2)C12CCN(C1CC3(CCCCCC3)Oc3ccccc31)CC2 (stereo not given)
- pEC50 [1]: inactive

Structure (SMILES): O=C1NCN(c2ccccc2)C12CCN(C1CC3(CCCCC3)Oc3ccccc31)CC2 (stereo not given)
- pKb [5]: < 6
- pEC50 [1]: inactive
